How the values were obtained:
SK-OV-3 (Her2 3+) cells [1] = test: In vitro cytotoxicity of ADCs, Example c3 (resazurin cell viability, 5 days); type: cell-based; conditions: ADC, 5 days incubation, 1 pM to 10 nM
Protocol: (§1) BT-474 (Her2 3+), SK-OV-3 (Her2 3+) and MDA-MB-231 (Her2-) cells were plated in 96-well plates (5000 cells/well) in RPMI-1640 GlutaMAX (Invitrogen) supplemented with 10% fetal bovine serum (FBS) (Invitrogen, 150 μL/well) and incubated overnight in a humidified atmosphere at 37° C. and 5% CO2. ADCs were added in triplo in a square root of 10-fold dilution series to obtain a final concentration ranging from 1 pM to 10 nM and a final volume of 200 µL/well. The cells were incubated for 5 days in a humidified atmosphere at 37° C. and 5% CO2. The culture medium was replaced by 0.01 mg/mL resazurin (Sigma Aldrich) in RPMI-1640 GlutaMAX supplemented with 10% FBS (200 μL/well). After 4 hours in a humidified atmosphere at 37° C. and 5% CO2 the fluorescence was detected with a fluorescence plate reader (Infinite® M1000 Tecan) at 560 nm excitation and 590 nm emission. The relative fluorescent units (RFU) were normalized to cell viability percentage by setting wells without cells at 0% viability and wells with untreated cells at 100% viability. Viability was plotted using Graphpad prism software (see FIG. 21). IC50 values for ADCs on SKOV-3, N87 and JIMT-1 were calculated by non-linear regression using Graphpad prism software and are shown in the table below.

BT-474 (Her2 3+) cells = test: as above; type: cell-based; conditions: ADC, 5 days incubation, 1 pM to 10 nM
Protocol: as §1

NCI-N87 (Her2 3+) cells = test: In vitro cytotoxicity of ADCs, Example c2 (resazurin cell viability, 5 days); type: cell-based; conditions: ADC, 5 days incubation, 1 pM to 10 nM
Protocol: as §1, with “SK-OV-3 (Her2” for “BT-474 (Her2”, “3+), NCI-N87” for “3+), SK-OV-3”, “(Her2 3+), JIMT-1 (Her2 1+)” for “(Her2 3+)”, “MDA-MB-231 (Her2−)” for “MDA-MB-231 (Her2-)”, “FIG. 17).” for “FIG. 21).”

SK-OV-3 (Her2 3+) cells [2] = test: as above; type: cell-based; conditions: ADC, 5 days incubation, 1 pM to 10 nM
Protocol: as §1, with “SK-OV-3 (Her2” for “BT-474 (Her2”, “3+), NCI-N87” for “3+), SK-OV-3”, “(Her2 3+), JIMT-1 (Her2 1+)” for “(Her2 3+)”, “MDA-MB-231 (Her2−)” for “MDA-MB-231 (Her2-)”, “FIG. 17).” for “FIG. 21).”

JIMT-1 (Her2 1+) cells = test: as above; type: cell-based, human; conditions: ADC, 5 days incubation, 1 pM to 10 nM
Protocol: as §1, with “SK-OV-3 (Her2” for “BT-474 (Her2”, “3+), NCI-N87” for “3+), SK-OV-3”, “(Her2 3+), JIMT-1 (Her2 1+)” for “(Her2 3+)”, “MDA-MB-231 (Her2−)” for “MDA-MB-231 (Her2-)”, “FIG. 17).” for “FIG. 21).”

NCI-N87 cells = test: In vitro cytotoxicity of free payloads (resazurin cell viability, 3 days); type: cell-based; conditions: Homo sapiens, NCI-N87, 72 h, read-out: IC50 NCI-N87 (HER2 3+)
Protocol: SK-OV-3, NCI-N87, JIMT-1 and MDA-MB-231 cells were plated in 96-well plates (5000 cells/well) in RPMI-1640 GlutaMAX (Invitrogen) supplemented with 10% fetal bovine serum (FBS) (Invitrogen, 150 μL/well) and incubated overnight in a humidified atmosphere at 37° C. and 5% CO2. Compounds 6a, 6b, 6c, 6d and 6e were added in triplo in a square root of 10-fold dilution series to obtain a final concentration ranging from 1 pM to 10 nM (for SK-OV-3 and NCI-N87) or 10 pM to 100 nM (for JIMT-1 and MDA-MB-231) and a final volume of 200 μL/well. The cells were incubated for 3 days in a humidified atmosphere at 37° C. and 5% CO2. The culture medium was replaced by 0.01 mg/mL resazurin (Sigma Aldrich) in RPMI-1640 GlutaMAX supplemented with 10% FBS (200 μL/well). After 4 hours in a humidified atmosphere at 37° C. and 5% CO2 the fluorescence was detected with a fluorescence plate reader (Infinite® M1000 Tecan) at 560 nm excitation and 590 nm emission. The relative fluorescent units (RFU) were normalized to cell viability percentage by setting wells without cells at 0% viability and wells with untreated cells at 100% viability. Viability was plotted using Graphpad prism software (see FIG. 20).

MDA-MB-231 (Her2−) cells = test: In vitro cytotoxicity of ADCs, Example c2 (resazurin cell viability, 5 days); type: cell-based; conditions: ADC, 5 days incubation, 1 pM to 10 nM
Protocol: as §1, with “SK-OV-3 (Her2” for “BT-474 (Her2”, “3+), NCI-N87” for “3+), SK-OV-3”, “(Her2 3+), JIMT-1 (Her2 1+)” for “(Her2 3+)”, “MDA-MB-231 (Her2−)” for “MDA-MB-231 (Her2-)”, “FIG. 17).” for “FIG. 21).”

MDA-MB-231 (Her2-) cells = test: In vitro cytotoxicity of ADCs, Example c3 (resazurin cell viability, 5 days); type: cell-based; conditions: ADC, 5 days incubation, 1 pM to 10 nM
Protocol: as §1

Compound | IC50 (BT-474 (Her2 3+) cells) [nM] | IC50 (NCI-N87 (Her2 3+) cells) [nM] | IC50 (SK-OV-3 (Her2 3+) cells [2]) [nM] | IC50 (JIMT-1 (Her2 1+) cells) [nM] | further results
trast-75 | – | – | – | – | IC50 (SK-OV-3 (Her2 3+) cells [1]): 0.149 nM
trast-63b | 0.39 | – | – | – | IC50 SK-OV-3 (HER2 3+) (SK-OV-3 (Her2 3+) cells [1]): No IC50; IC50 SK-OV-3 (HER2 3+) (SK-OV-3 (Her2 3+) cells [1]; listed as trast-6b): no accurate IC50 value could be calculated
trast-9c | – | 0.179 | 0.211 | 0.145 | –
trast-36 | – | 0.086 | – | 0.015 | –
COc1cccc2c1C(=O)c1c(O)c3c(c(O)c1C2=O)C[C@@](O)(C(=O)CO)C[C@@H]3O[C@H]1C[C@H]2[C@H](O[C@@H]3[C@@H](OCCN=[N+]=[N-])OCCN32)[C@H](C)O1 [Compound 6b] | – | – | – | – | IC50 (NCI-N87 cells): 0.224 nM
trast-63a | 0.196 | – | – | – | –
trast-9d | – | 0.207 | 0.287 | – | –
trast-9g [reference compound] | 0.043 | 0.039 | 0.097 | 0.046 | IC50 MDA-MB-231 (HER2−) (MDA-MB-231 (Her2−) cells): No IC50; IC50 MDA-MB-231 (HER2−) (MDA-MB-231 (Her2-) cells): No IC50; IC50 (SK-OV-3 (Her2 3+) cells [1]): 0.057 nM

From patent publication US20250312474A1, “ANTHRACYCLINS AND CONJUGATES THEREOF” (priority 2022, published 2025)
